The target of experiment [1] is T1, dna2-AC (dna2-D357A,E358A,D361A,D362A,E366A), FLAG-His6-tagged (S. cerevisiae, UniProt P38859, D357A | E358A | D361A | D362A | E366A). Put plainly: cell-based or functional assay.
For experiment [2], the target named is T2, dna2-D657A (nuclease-dead Dna2) (S. cerevisiae, UniProt P38859, D657A).
T2 construct: Dna2, Saccharomyces cerevisiae, nuclease-dead version; Purified as the other Dna2 variants; FLAG tag used for quantum-dot labelling in DNA Curtains; also called dna2-D657A mutant; source: over-expressed in yeast, purified (Ni-NTA, anti-FLAG-M2 resin)
As to the kind of experiment: native gel or EMSA; ternary complex of dna2-D657A, RPA and 5 nM 5′-dT(30)-overhanging DNA (3′-overhang and gapped DNA compared); 150 mM KCl, 30 °C, 4% native gel. Particulars: both partners purified. (In general: In EMSA bound probe runs differently from free probe, usually more slowly.)

Amino acid sequences for entries named in this document (tags omitted).
UniProt P38859, whole entry D357A/E358A/D361A/D362A/E366A: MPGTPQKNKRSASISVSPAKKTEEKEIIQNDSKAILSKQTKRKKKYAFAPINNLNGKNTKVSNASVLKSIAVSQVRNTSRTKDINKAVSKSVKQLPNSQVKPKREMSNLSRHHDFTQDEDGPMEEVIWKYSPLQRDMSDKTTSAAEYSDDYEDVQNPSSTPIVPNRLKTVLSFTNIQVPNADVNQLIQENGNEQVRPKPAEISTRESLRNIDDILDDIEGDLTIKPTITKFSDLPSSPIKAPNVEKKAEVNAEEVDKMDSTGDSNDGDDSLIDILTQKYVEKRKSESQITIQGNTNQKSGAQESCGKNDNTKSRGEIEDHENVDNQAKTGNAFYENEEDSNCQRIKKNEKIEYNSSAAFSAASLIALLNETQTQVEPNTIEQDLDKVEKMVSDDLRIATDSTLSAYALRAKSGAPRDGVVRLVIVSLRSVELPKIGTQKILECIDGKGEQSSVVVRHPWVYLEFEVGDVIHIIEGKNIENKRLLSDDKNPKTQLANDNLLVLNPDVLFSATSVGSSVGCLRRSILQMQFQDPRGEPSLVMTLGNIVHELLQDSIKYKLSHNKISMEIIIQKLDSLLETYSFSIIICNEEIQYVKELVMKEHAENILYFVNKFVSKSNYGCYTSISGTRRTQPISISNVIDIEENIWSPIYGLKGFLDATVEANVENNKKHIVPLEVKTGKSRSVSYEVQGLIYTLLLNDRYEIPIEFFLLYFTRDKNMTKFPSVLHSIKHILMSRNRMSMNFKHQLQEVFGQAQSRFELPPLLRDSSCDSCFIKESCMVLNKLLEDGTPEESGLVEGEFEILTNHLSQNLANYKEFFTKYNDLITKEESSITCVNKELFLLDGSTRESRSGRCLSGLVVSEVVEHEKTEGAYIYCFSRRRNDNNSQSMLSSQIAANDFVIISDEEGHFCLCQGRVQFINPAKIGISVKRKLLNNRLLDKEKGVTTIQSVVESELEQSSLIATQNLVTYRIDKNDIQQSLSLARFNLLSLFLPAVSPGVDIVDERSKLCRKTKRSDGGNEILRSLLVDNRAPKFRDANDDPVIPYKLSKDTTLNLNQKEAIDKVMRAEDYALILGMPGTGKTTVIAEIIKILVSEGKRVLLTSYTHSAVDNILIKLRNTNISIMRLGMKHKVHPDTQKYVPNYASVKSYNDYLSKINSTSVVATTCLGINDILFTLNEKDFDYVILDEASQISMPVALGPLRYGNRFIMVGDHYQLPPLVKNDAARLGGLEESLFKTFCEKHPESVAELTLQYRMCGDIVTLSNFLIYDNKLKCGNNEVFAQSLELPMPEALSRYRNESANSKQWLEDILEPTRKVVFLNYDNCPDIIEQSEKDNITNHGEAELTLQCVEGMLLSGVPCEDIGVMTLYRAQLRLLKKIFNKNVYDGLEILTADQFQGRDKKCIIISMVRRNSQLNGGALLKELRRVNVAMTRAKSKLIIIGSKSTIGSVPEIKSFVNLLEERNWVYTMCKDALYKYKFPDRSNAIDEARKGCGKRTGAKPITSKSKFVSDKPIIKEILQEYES
UniProt P38859, whole entry D657A: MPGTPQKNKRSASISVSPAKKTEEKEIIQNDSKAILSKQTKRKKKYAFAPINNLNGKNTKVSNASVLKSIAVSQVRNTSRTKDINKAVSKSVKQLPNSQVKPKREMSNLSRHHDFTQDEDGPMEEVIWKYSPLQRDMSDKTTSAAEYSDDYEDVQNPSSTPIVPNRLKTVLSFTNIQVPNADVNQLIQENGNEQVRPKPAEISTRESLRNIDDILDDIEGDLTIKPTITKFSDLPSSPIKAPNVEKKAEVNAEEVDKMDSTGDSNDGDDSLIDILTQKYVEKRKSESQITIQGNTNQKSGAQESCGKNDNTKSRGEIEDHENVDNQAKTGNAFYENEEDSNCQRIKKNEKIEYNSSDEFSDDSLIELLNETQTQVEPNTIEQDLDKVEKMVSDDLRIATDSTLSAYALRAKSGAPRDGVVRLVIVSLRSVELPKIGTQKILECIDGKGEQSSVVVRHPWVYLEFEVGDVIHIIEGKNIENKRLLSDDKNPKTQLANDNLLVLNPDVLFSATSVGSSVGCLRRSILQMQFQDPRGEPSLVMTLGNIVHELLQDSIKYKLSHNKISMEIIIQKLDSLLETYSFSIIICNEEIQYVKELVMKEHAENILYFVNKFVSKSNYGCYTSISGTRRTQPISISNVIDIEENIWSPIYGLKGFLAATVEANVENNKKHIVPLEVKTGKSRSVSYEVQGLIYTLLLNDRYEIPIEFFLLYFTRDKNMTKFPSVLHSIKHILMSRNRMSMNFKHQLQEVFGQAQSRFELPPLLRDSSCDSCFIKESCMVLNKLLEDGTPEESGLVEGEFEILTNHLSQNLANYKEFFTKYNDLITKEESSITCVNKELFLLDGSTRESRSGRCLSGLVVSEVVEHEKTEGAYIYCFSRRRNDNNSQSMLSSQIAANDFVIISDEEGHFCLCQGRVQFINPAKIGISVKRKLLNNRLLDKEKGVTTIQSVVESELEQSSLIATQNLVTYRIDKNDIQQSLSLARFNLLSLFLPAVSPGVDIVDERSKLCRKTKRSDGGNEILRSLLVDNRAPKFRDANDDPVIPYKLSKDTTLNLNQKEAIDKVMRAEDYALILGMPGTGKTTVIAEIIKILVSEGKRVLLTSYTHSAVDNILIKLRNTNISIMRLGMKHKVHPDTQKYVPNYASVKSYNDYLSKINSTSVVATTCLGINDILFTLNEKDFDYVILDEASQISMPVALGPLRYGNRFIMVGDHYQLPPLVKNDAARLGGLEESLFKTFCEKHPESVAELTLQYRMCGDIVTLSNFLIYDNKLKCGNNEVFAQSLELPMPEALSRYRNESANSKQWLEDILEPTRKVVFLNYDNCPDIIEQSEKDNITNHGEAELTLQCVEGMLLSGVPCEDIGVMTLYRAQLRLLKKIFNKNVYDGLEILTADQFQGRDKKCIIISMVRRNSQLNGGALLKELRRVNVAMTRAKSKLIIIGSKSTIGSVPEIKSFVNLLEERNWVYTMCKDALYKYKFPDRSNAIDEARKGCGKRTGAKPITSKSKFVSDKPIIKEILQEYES

Experiment [3] deals with T3, Dna2 (wild type, FLAG-His6-tagged) (S. cerevisiae, UniProt P38859).
T3 construct: Dna2 nuclease-helicase, Saccharomyces cerevisiae, wild type; Wild-type protein; In DNA Curtains it was labelled with anti-FLAG quantum dots; in MST with the His-tag labelling kit RED-tris-NTA; also called wild-type Dna2; (His)6-tagged Dna2; source: over-expressed in yeast, purified (Ni-NTA, anti-FLAG-M2 resin)
Put plainly: MST; Dna2 or dna2-AC labelled with the His-tag labelling kit RED-tris-NTA, RPA titrated as ligand; 20 mM Tris-HCl pH 8.0, 150 mM NaCl, 5% glycerol, 0.01% NP-40, 1 mM β-mercaptoethanol; 30 °C; no DNA. To be noted: both partners purified.

The target in experiment [4] is T1, dna2-AC …. The description is as above. To be noted: both partners purified.

The Kd is the concentration at which binding is half-saturated. High values mean weaker binding, low ones tighter binding.

B1: RPA (yeast replication protein A, non-tagged heterotrimer) (complex, yeast (S. cerevisiae))
chain 1: MSSVQLSRGDFHSIFTNKQRYDNPTGGVYQVYNTRKSDGANSNRKNLIMISDGIYHMKALLRNQAASKFQSMELQRGDIIRVIIAEPAIVRERKKYVLLVDDFELVQSRADMVNQTSTFLDNYFSEHPNETLKDEDITDSGNVANQTNASNAGVPDMLHSNSNLNANERKFANENPNSQKTRPIFAIEQLSPYQNVWTIKARVSYKGEIKTWHNQRGDGKLFNVNFLDTSGEIRATAFNDFATKFNEILQEGKVYYVSKAKLQPAKPQFTNLTHPYELNLDRDTVIEECFDESNVPKTHFNFIKLDAIQNQEVNSNVDVLGIIQTINPHFELTSRAGKKFDRRDITIVDDSGFSISVGLWNQQALDFNLPEGSVAAIKGVRVTDFGGKSLSMGFSSTLIPNPEIPEAYALKGWYDSKGRNANFITLKQEPGMGGQSAASLTKFIAQRITIARAQAENLGRSEKGDFFSVKAAISFLKVDNFAYPACSNENCNKKVLEQPDGTWRCEKCDTNNARPNWRYILTISIIDETNQLWLTLFDDQAKQLLGVDANTLMSLKEEDPNEFTKITQSIQMNEYDFRIRAREDTYNDQSRIRYTVANLHSLNYRAEADYLADELSKALLA
chain 2: MATYQPYNEYSSVTGGGFENSESRPGSGESETNTRVNTLTPVTIKQILESKQDIQDGPFVSHNQELHHVCFVGVVRNITDHTANIFLTIEDGTGQIEVRKWSEDANDLAAGNDDSSGKGYGSQVAQQFEIGGYVKVFGALKEFGGKKNIQYAVIKPIDSFNEVLTHHLEVIKCHSIASGMMKQPLESASNNNGQSLFVKDDNDTSSGSSPLQRILEFCKKQCEGKDANSFAVPIPLISQSLNLDETTVRNCCTTLTDQGFIYPTFDDNNFFAL
chain 3: MASETPRVDPTEISNVNAPVFRIIAQIKSQPTESQLILQSPTISSKNGSEVEMITLNNIRVSMNKTFEIDSWYEFVCRNNDDGELGFLILDAVLCKFKENEDLSLNGVVALQRLCKKYPEIY
notes: Rfa1, large subunit of yeast RPA; Rfa2, middle subunit of yeast RPA; Rfa3, small subunit of yeast RPA; RFA1, RFA2 and RFA3 in pET11c, construct from the Finkelstein lab; non-tagged; also called wild-type RPA; source: E. coli BL21 codon plus, purified (Affi-Gel Blue, hydroxyapatite, Superdex 200, Mono Q); copies: + +
As to B1, in experiment [1], the “fold decrease in digestion of long ssDNA (562 nt) under various concentrations of RPA, dna2-AC against Dna2 (Fig. 7a)” value amounted to 3 fold and the “stimulation by RPA of the initial 5′-cleavage, dna2-AC against wild-type Dna2 (Supplementary Fig. 7a)” value was roughly 2 fold. Besides, in experiment [2], the binding result is on record as “binds”. In experiment [3], this molecule gave a Kd of 185 ± 7 nM. Further, in experiment [4], binding was put at a Kd of 805 ± 22 nM.
